According to PubChem BioAssay AID1813 (Broad Institute, 2009):
The list shows a part of the results, in another mix than the full data. The source made the active and inactive calls. Rule as the data show it: active = inhibition above about 60%; inconclusive = no clear call, values can overlap the other calls; inactive = below that.

Assay: 5' untranslated region of α-synuclein, MLPCN primary screen (AID 1813);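 also: H4 neuroglioblastoma cells stably carrying SNCA 5'UTR luciferase fusion; 0% = DMSO wells and 100% = positive control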
Conditions: alpha-synuclein 5'UTR reporter, inhibitor activity; stronger effect = higher value; tested at 7.5 µM

| SMILES | inhibition |
| --- | --- |
| CN(C)C(=O)OCCc1n(C)cc[n+]1C | inactive: -5.18% |
| CCN(/C(=N/P(=O)(N1CCOCC1)N1CCOCC1)N1CCOCC1)c1ccc(OC)cc1 | inactive: -1.98% |
| Nc1ccc([As](=O)(O)c2ccc(N)cc2)cc1 | inactive: 13.2% |
| C[N+]1=C2C=CC=CC=C2SC12C([N+](=O)[O-])=CC([N+](=O)[O-])=C[C-]2[N+](=O)[O-] (centres undefined) | inactive: -55.9% |
| Cc1ccc(NP(=O)(Oc2ccccc2)Oc2ccccc2)nc1 | inactive: -23.3% |
| O=[N+]([O-])c1cc([N+](=O)[O-])c(CCNc2ccccc2)c([N+](=O)[O-])c1 | inactive: -83.8% |
| CCc1nc2c(n1)c1c(non1O)c1c2no[n+]1[O-] | inactive: -15.3% |
| CC(=O)N1C2C3N(C(C)=O)C1C1N(C(C)=O)C(C(N1C(C)=O)N3C(C)=O)N2C(C)=O | inactive: 13.3% |
| O=[N+]([O-])c1cccc2n[nH]nc12 | inactive: -14.3% |
| COc1ccc(C2=NCC(CBr)S2)cc1 (centres undefined) | inactive: -21.8% |
| c1nnnn1CCn1cnnn1 | inactive: 5.31% |
| O=P(Nc1nccs1)(c1ccccc1)c1ccccc1 | inactive: -5.59% |
| CC(C)C(=O)NC(Sc1ccccc1)C(Cl)(Cl)Cl (centres undefined) | inactive: 14.3% |
| O=C(OC1CN2CCC1CC2)c1cccc(Cl)c1 (centres undefined) | inactive: -6.3% |
| Nc1ccc([As](=O)(O)c2ccc([N+](=O)[O-])cc2)cc1 | inactive: -1.92% |
| C(Cc1nn[nH]n1)Cc1nn[nH]n1 | inactive: 7.84% |
| O=[As](O)(c1ccccc1)c1ccc(O)cc1 | inactive: 12.4% |
| CC(=O)NC(SC(=S)N(C)C)C(Cl)(Cl)Cl (centres undefined) | inactive: -0.937% |
| O=[N+]([O-])c1ncn(CCn2cnc([N+](=O)[O-])n2)n1 | inactive: 24.4% |
| O=[N+]([O-])c1ccc(O)c(/C=N/Nc2ccc([N+](=O)[O-])cc2[N+](=O)[O-])c1 | inactive: 4.62% |
| O=P(Nc1nc2ccccc2s1)(c1ccccc1)c1ccccc1 | inactive: -5.08% |
| C[C@H]1OP(=O)(Oc2ccccc2)[C@H](O)[C@H](O)[C@H]1N=[N+]=[N-] (some centres undefined) | inactive: 10.1% |

| SMILES | inhibition |
| --- | --- |
| CN(C)C1(CNC(=O)c2ccc(Cl)c(S(N)(=O)=O)c2)CCCCC1 | inactive: -7.34% |
| O=P(Nc1ccccn1)(c1ccc(Br)cc1)c1ccc(Br)cc1 | inactive: -12.9% |
| Cc1ccccc1OP(=O)(Nc1ccccn1)Oc1ccccc1C | inactive: 4.45% |
| CN(C)C(=O)Oc1noc2ccccc12 | inactive: -11.4% |
| O=C(OC1CN2CCC1CC2)c1ccccc1 (centres undefined) | inactive: -20.6% |
| CCC(=O)N1C2C3N(C(=O)CC)C1C1N(C(=O)CC)C(C(N1C(=O)CC)N3C(=O)CC)N2C(=O)CC | inactive: -9.34% |
| COC(=O)c1cc2c(s1)N=C(c1ccccc1)N(C)P2(=O)N1CCOCC1 (centres undefined) | inactive: -5.33% |
| CC(=O)NC(SC(=S)N(CC(C)C)CC(C)C)C(Cl)(Cl)Cl (centres undefined) | inactive: 16.1% |
| Cc1ccc(OP(=O)(Nc2ccccn2)Oc2ccc(C)cc2)cc1 | inactive: -4.56% |
| c1ccc(-c2nn[nH]n2)c(-c2nn[nH]n2)c1 | inactive: 14.1% |
| Cc1ccc(NP(=O)(Oc2cccc(C)c2)Oc2cccc(C)c2)nc1 | inactive: -4.34% |
| CCOC(=O)NC(Sc1ccccc1)C(Cl)(Cl)Cl (centres undefined) | inactive: -15.8% |
| O=C(NC1CCS(=O)(=O)C1)NP(=S)(Oc1ccccc1)Oc1ccccc1 (centres undefined) | inactive: 4.29% |
| CCNC(=S)/N=C(\N)N[N+](=O)[O-] | inactive: -5.31% |
| CC(=O)Nc1ccc([As](=O)(O)O)c(O)c1 | inactive: 2.12% |
| CC(=O)Nc1ccc(Oc2c([N+](=O)[O-])cc([N+](=O)[O-])cc2[N+](=O)[O-])cc1 | inactive: 1.99% |
| C[C@@H]1C=CCP(=O)(Oc2ccccc2)O1 (some centres undefined) | inactive: -6.2% |
| C[C@H]1OP(=O)(Oc2ccccc2)C[C@@H]2O[C@@H]21 (some centres undefined) | inactive: 19.1% |
| CC(=O)c1ccc(N2CC2c2ccncc2)cc1 (centres undefined) | inactive: 5.42% |
| CC(C)(C)C(=O)NC(Sc1ccccc1)C(Cl)(Cl)Cl (centres undefined) | inactive: 0.0811% |
| O=P1(Nc2nc3ccc(Cl)cc3s2)COc2ccccc2O1 (centres undefined) | inactive: -25.7% |
| CCOc1ccc(C2=NCC(CBr)S2)cc1 (centres undefined) | inactive: -17.3% |
